By EC50 is commonly meant the concentration needed to bring the measured effect to its halfway point.

These results are taken from US12319708B2, “Agonists of peroxisome proliferator-activated receptor alpha (PPARα) and methods of use” (The Board of Regents of the University of Oklahoma, priority 2018, dated 2025).

Each structure is given as a SMILES string. Where two headings read alike, the source gives them in different places. Where only a bound is given, the exact number is not on record here.

Assay [1] concerns the target T1, hPPARα (Homo sapiens, UniProt Q07869).
T1 sequence (Q07869 1-468): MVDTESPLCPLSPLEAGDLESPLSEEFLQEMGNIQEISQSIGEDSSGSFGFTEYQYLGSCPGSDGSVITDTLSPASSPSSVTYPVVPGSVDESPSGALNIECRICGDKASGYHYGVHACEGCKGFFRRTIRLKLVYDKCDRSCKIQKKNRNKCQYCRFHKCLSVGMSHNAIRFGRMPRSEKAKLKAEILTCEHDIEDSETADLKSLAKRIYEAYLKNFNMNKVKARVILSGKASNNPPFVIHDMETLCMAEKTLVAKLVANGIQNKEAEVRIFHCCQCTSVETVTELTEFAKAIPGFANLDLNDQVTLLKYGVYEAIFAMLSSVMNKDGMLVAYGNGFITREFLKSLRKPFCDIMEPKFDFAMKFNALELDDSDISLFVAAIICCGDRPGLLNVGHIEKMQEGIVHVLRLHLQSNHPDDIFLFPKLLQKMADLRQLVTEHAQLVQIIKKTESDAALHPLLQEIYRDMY
Particulars: known property of reference agonist; cited from earlier work.

In assay [2] the target is T1, hPPARα. The assay is described as follows: PPARα luciferase cell reporter assay (Indigo Biosciences). It counts as cell-based.

Regarding `Cc1nc(-c2ccc(C(F)(F)F)cc2)sc1C(=O)NCc1ccc(OC(C)(C)C(=O)O)cc1` [GW590735, reference compound], the “selectivity for PPARα over PPARγ and PPARδ” value at hPPARα [1] was not below 500 fold. For the same molecule, on hPPARα [2] (5 and 50 μM compound concentrations), the “ratio (5/50): ratio of relative light unit (RLU) signal at 5 and 50 μM” value turned out to be 1.0. For the same molecule, the EC50 on hPPARα [2] (luciferase reporter cell-line, triplicate, single experiment, read-out: hPPARα EC50) came to 12 nM; on hPPARα [2] (mean ± SEM of at least two separate experiments in triplicate (Table 9), read-out: EC50 hPPARα) it was 15 ± 2 nM. For the same molecule, on hPPARα [2] (relative to GW590735), the “fold-signal: ratio of maximal signal strength to that obtained with GW590735” value turned out to be 1.0.
